# Results: US10065957B2, “Beta-lactamase inhibitors” (Novartis AG, priority 2016, dated 2018)
# Test system: E. coli (KPC-2)
# Conditions: ceftazidime alone
substance,measurement,value
Ceftazidime,MIC of ceftazidime,4 µg/mL
